Consider 2 molecules from ChEMBL document CHEMBL5335798, “First-in-Class Selenium-Containing Potent Serotonin Receptor 5-HT6 Agents with a Beneficial Neuroprotective Profile against Alzheimer's Disease” (J Med Chem, 2024).

The nature of the data set: in vitro. As to conditions: human, SH-SY5Y cells.

As a reminder, the IC50 is the concentration at which inhibition is half-maximal. High values mean a need for much substance, low ones inhibition by little substance. `CCC([Se]c1ccc2ccccc2c1)c1nc(N)nc(N2CCN(C)CC2)n1` (configuration not stated) came in with a 50% inhibitory concentration (IC50) at 27 h of 66.1 µM.
As for `CC([Se]c1ccc2ccccc2c1)c1nc(N)nc(N2CCN(C)CC2)n1` (configuration not stated), the figure is 40.6 µM.
